Biological target: epidermal growth factor receptor (EGFR) (human (endogenous on human cancer cell lines)) (UniProt P00533)
Test: cell-based or functional assay

Dmax (%), EGFR, A431: 54% | Dmax (%), EGFR, A549: 72% | Dmax (%), EGFR, HeLa: 84% | Dmax (%), EGFR, MDA-MB-231: 66% | Dmax (%), EGFR, NCI-H292: 74% | Dmax (%), EGFR, NCI-H358: 79% | Dmax of EGFR degradation, western blot, HeLa cells, 24 hr: 86%
Substance: CXCL12-Cetuximab (bispecific antibody)

Reference: patent US20240189423A1
